Test results as given in US12600727B2, “Treatment of infections of toxoplasma gondii and closely related parasites” (WASHINGTON UNIVERSITY, priority 2018, dated 2026).

System: Toxoplasma gondii strains expressing FLUC
Test: microbe, parasite or virus in culture
Format: cell-based
Method: The ability of bicyclic azetidines to inhibit different strains of T. gondii was tested using a series of firefly luciferase (FLUC)-tagged lines. […] A similar strategy was utilized to derive FLUC expressing lines from additional T. gondii strains MAS (type 4) and FOU (type 6).

## COc1ccc(NC(=O)N2CCCCN3[C@H](CN(C)C)[C@H](c4ccc(C#Cc5ccccc5)cc4)[C@@H]3C2)cc1 [Compound 15, (8R,9S,10S)-10-((dimethylamino)methyl)-N-(4-methoxyphenyl)-9-(4-(phenylethynyl)phenyl)-1,6-diazabicyclo[6.2.0]decane-6-carboxamide]
Toxoplasma gondii, genotype 3, read-out: Average EC50 ± S.D.
  EC50: 34.3 nM
Strains ME49, CTG, MAS, RUB, FOU, VAND
  EC50 values of all strains relative to each other and historical standards: ≤ 2 fold
